From article PMC7350276 (Journal of pharmaceutical and biomedical analysis, 2019)
Entries after “also recorded” stand apart in the source; their conditions may differ.

What was measured:
[1] = Preclinical pharmacokinetic studies; type: in vivo, male Sprague Dawley rats
[2] = Imaging mass spectrometry of brain tissue; type: in vivo, rat; conditions: 10 mg/kg I.V., 30 min post dose
[3] = Analyte stability in rat plasma; type: in vitro ADME; conditions: mean ± S.D.; for Freeze-thaw stability in plasma: −20 °C
Stock solution stability = type: physicochemical; conditions: fridge at 4°C, up to 7 days, mean ± S.D.
[4] = rabbit liver microsomes; cited from earlier work
κ-opioid receptors = conditions: read-out: Ki ± SEM; cited from earlier work
μ-opioid receptors = conditions: read-out: Ki ± SEM; cited from earlier work
α−1D = conditions: cited from earlier work
[5] = I.V. 2.5 mg/kg, male Sprague Dawley rats, mean ± S.E.M., N=4
[6] = P.O. 20 mg/kg, male Sprague Dawley rats, mean ± S.E.M., N=4

Substance: corynantheidine
- Plasma concentration-time profile, shape ([1]; I.V. 2.5 mg/kg): bi-exponential decay
- AUCinf, total exposure extrapolated [1, 5]: 652.9 ± 23.3 ng·h/mL
- AUClast, total exposure up to the last measured time point [1, 5]: 640.3 ± 24.0 ng·h/mL
- CL, clearance [1, 5]: 884.1 ± 32.3 mL/h
- K, elimination rate constant [1, 5]: 0.1 ± 0.0 h⁻¹
- MRT, mean residence time [1, 5]: 3.0 ± 0.2 h
- T1/2, half-life [1, 5]: 6.9 ± 0.0 h
- Vd, apparent volume of distribution [1, 5]: 8.0 ± 1.2 L
- Foral, absolute oral bioavailability ([1]; P.O. 20 mg/kg vs I.V. 2.5 mg/kg, from AUClast, mean ± S.E.M., N=4): 49.9 ± 16.4%
- CL, clearance [1, 6]: 1105.7 ± 613.3 mL/h
- Cmax, maximum observed plasma concentration [1, 6]: 213.4 ± 40.4 ng/mL
- MRT, mean residence time [1, 6]: 8.8 ± 1.8 h
- Tmax [1, 6]: 4.1 ± 1.3 h
- Vd, apparent volume of distribution [1, 6]: 9.2 ± 5.1 L
- Plasma concentration-time profile, shape ([1]; P.O. 20 mg/kg, suspension, 20 mg/kg): flip-flop kinetics with absorption rate slower than the elimination rate
- Time up to which corynantheidine was quantifiable in plasma ([1]; both I.V. and P.O. routes): up to 24 h
- Blood-brain barrier crossing [2]: readily crosses the blood-brain barrier
- Distribution in the brain (regions where detected) ([2]; MALDI FT-ICR imaging): the corpus callosum and parts of the hippocampus, such as the hippocampal commissure and the fimbria; also recorded: enters the corpus callosum and parts of hippocampal regions in the rat brain
- Freeze-thaw stability in plasma ([3]; 3 freeze-thaw cycles): 98 % ± 25 % of nominal value
- Autosampler stability of extracted plasma samples ([3]; 10 °C, up to 48 h): 96% ± 9 % of nominal value
- Benchtop stability in plasma ([3]; room temperature, up to 9 h): 88% ± 6 % of nominal value
- Freeze-thaw stability in plasma ([3]; two freeze-thaw cycles): 96% ± 5 % of nominal value
- Working stock stability (Stock solution stability): 93% ± 9 % of nominal value
- Major metabolite pathway [4]: O-demethylation
- Ki (κ-opioid receptors): 1910 ± 45 nM
- Ki (μ-opioid receptors): 118 ± 11.8 nM
- Ki (α−1D): 41.7 ± 4.7 nM
